Reference: ChEMBL document CHEMBL1148550, “4-Phenyl-4-[1H-imidazol-2-yl]-piperidine derivatives, a novel class of selective delta-opioid agonists” (Bioorg Med Chem Lett, 2006)

Sequences of proteins named here, by UniProt entry; tags and fusion partners are left off. A change or cut given only in a name is not applied to a line headed by its entry.
UniProt P41143, whole entry: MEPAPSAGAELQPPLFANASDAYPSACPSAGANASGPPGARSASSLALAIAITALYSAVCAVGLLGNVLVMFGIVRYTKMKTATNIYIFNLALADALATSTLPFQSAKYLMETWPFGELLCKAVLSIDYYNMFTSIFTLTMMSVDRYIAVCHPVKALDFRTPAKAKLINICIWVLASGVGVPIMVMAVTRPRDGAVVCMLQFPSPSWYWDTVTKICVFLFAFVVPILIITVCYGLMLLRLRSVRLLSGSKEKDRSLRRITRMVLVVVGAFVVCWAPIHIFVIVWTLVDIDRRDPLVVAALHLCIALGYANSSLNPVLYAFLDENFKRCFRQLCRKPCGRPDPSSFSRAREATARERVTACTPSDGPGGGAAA
UniProt P41145: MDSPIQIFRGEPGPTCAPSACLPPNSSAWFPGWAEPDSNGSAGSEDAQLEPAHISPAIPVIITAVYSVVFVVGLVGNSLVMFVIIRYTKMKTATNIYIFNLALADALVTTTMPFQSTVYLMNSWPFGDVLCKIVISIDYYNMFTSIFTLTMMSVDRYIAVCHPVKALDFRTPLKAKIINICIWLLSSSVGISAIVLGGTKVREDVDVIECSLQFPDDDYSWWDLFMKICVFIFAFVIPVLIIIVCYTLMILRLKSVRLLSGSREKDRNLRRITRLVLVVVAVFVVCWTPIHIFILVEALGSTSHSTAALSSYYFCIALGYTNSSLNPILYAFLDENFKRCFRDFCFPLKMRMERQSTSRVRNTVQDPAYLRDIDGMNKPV

Tests used:
[1] = biological target: T1, Delta-type opioid receptor (Homo sapiens, UniProt P41143); assay: Displacement of [3H]DPDPE from cloned human delta opioid receptor
In short: (§1)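 Radioligand competition binding at cloned human receptors: [³H]DAMGO for mu, [³H]DPDPE for delta, [³H]U69593 for kappa. Ki is the concentration giving half-maximal inhibition of tracer binding. Values are means of two independent, confirmatory experiments; only pIC50 differences up to 0.6 (SD < 0.5) were kept as reproducible.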

[2] = biological target: T1, Delta-type opioid receptor; assay: Agonist potency assessed by [35S]GTP-gammaS binding assay in C6 Glioma cells expressing cloned human delta opioid receptor; type: functional, cell-based
In short: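 Membranes expressing human δ-opioid receptors; agonism read as percent stimulation of [³⁵S]GTPγS binding against log molar ligand concentration. pEC₅₀ derived from three-parameter logistic curve fits.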

[3] = biological target: Kappa-type opioid receptor (Homo sapiens, UniProt P41145); assay: Displacement of [3H]U-69593 from cloned human kappa opioid receptor; in short: as §1

| pKi [3] | SMILES | pKi [1] | pEC50 [2] |
| --- | --- | --- | --- |
| – | CC(c1ccccc1)n1ccnc1C1(c2ccccc2)CCN(C(=O)Nc2ccccc2)CC1 (stereo not drawn) | 7.37 | – |
| – | O=C(Nc1cccc(F)c1)N1CCC(c2ccccc2)(c2nccn2Cc2ccccc2)CC1 | 7.54 | – |
| – | COc1cccc(NC(=O)N2CCC(c3ccccc3)(c3nccn3Cc3ccccc3)CC2)c1 | 7.34 | 6.36 |
| – | CN(C(=O)N1CCC(c2ccccc2)(c2nccn2Cc2ccccc2)CC1)c1ccccc1 | 8.05 | 6.11 |
| – | CCNC(=O)N1CCC(c2ccccc2)(c2nccn2Cc2ccccc2)CC1 | 7.41 | 6.93 |
| 6.46 | O=S(=O)(Nc1ccccc1)N1CCC(c2ccccc2)(c2nccn2Cc2ccccc2)CC1 | – | – |
| – | COc1ccccc1NC(=O)N1CCC(c2ccccc2)(c2nccn2Cc2ccccc2)CC1 | 7.51 | 6.93 |
| – | O=C(Nc1ccccc1)N1CCC(c2ccccc2)(c2nccn2Cc2ccccc2F)CC1 | 7.14 | – |
| – | O=C(Nc1ccccc1F)N1CCC(c2ccccc2)(c2nccn2Cc2ccccc2)CC1 | 7.54 | – |

pEC50, pKi: −log10 of the molar value.
